Here are results for one molecule from patent US20080032998A1, “Pyrazolopyrimidines, a process for their preparation and their use as medicine” (MERZ PHARMA GMBH & CO. KGAA, priority 2006, published 2008).

By UniProt entry, the sequences of proteins in these tests, tags left out. Residues count along the entry.
UniProt P31424, 21-1203: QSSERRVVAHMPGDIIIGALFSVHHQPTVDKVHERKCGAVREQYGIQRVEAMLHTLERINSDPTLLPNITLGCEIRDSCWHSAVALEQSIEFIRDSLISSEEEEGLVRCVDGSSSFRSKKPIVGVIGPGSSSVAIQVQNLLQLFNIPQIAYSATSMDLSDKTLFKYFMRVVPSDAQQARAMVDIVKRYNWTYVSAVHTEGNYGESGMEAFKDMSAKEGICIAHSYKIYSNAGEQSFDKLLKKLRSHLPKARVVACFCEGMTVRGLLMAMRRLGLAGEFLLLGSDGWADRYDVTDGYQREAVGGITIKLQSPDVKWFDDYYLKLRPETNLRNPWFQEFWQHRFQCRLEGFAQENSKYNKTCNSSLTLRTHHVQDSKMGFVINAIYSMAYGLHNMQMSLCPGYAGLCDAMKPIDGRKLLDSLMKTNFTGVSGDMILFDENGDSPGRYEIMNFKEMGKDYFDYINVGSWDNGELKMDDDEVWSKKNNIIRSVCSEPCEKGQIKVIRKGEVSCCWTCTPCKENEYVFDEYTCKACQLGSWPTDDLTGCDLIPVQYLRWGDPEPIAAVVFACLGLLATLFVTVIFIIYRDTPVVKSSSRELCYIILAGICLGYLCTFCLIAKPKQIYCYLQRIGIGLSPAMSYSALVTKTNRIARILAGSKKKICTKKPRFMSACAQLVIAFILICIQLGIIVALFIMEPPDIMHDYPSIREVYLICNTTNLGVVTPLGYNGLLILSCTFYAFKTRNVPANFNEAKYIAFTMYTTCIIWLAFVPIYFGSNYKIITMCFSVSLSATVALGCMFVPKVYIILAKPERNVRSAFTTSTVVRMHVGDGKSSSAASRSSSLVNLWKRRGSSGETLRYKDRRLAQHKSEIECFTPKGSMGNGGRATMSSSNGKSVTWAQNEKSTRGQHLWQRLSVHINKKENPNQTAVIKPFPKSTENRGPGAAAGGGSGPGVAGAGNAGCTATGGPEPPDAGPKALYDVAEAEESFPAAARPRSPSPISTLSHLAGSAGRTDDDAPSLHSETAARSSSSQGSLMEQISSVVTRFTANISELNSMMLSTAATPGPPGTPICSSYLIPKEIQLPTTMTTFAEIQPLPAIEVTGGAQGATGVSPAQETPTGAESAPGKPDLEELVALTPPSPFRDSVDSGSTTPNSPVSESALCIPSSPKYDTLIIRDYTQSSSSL

The target of the experiment is T1, transmembrane allosteric modulatory sites of mGluR5 receptors in cortical membranes (Rattus norvegicus, UniProt P31424).
T1 construct: from tissue; host or cells: rat brain cortex membranes (male Sprague-Dawley)
In words: [3H]-MPEP binding assay in rat cortical membranes. The procedure:
Male Sprague-Dawley rats (200-250 g) are decapitated and their brains are removed rapidly. The cortex is dissected and homogenized in 20 volumes of ice-cold 0.32 M sucrose using a glass-Teflon homogenizer. The homogenate is centrifuged at 1000×g for 10 minutes. The pellet is discarded and the supernatant centrifuged at 20,000×g for 20 minutes. The resulting pellet is re-suspended in 20 volumes of distilled water and centrifuged for 20 minutes at 8000×g. Then the supernatant and the buffy coat are centrifuged at 48,000×g for 20 minutes in the presence of 50 mM Tris-HCl, pH 8.0. The pellet is then re-suspended and centrifuged two to three more times at 48,000×g for 20 minutes in the presence of 50 mM Tris-HCl, pH 8.0. All centrifugation steps are carried out at 4° C. After resuspension in 5 volumes of 50 mM Tris-HCl, pH 8.0 the membrane suspension is frozen rapidly at −80° C. […]
Alternatively, assays are performed with [^3H]-MMPEP (2-(3-methoxyphenylethynyl)-6-methylpyridine hydrochloride) as radioligand. […] Following separation and rinse, the filters are placed into scintillation liquid (5 ml Ultima Gold, Perkin Elmer, Germany) and radioactivity retained on the filters is determined with a conventional liquid scintillation counter (Canberra Packard, Germany).

The structures appear in SMILES notation.

As usually defined, the IC50 is the concentration that inhibits the measured activity by half. The low end stands for greater potency, the high end for weaker potency. As for `Cc1cccc(C#Cc2ccccc2)n1` [MPEP, 2-methyl-6-(phenylethynyl)pyridine], the IC50 amounted to 11.2 ± 0.64 nM.
